Consider 41 compounds from US7759499B2, “Compounds as inhibitors of hepatitis C virus NS3 serine protease” (Schering Corporation, priority 2004, dated 2010).

Protein sequences, listed by entry. Tags and fused reporters are not part of them. Residues count along the entry.
UniProt P27958, 1027-1657: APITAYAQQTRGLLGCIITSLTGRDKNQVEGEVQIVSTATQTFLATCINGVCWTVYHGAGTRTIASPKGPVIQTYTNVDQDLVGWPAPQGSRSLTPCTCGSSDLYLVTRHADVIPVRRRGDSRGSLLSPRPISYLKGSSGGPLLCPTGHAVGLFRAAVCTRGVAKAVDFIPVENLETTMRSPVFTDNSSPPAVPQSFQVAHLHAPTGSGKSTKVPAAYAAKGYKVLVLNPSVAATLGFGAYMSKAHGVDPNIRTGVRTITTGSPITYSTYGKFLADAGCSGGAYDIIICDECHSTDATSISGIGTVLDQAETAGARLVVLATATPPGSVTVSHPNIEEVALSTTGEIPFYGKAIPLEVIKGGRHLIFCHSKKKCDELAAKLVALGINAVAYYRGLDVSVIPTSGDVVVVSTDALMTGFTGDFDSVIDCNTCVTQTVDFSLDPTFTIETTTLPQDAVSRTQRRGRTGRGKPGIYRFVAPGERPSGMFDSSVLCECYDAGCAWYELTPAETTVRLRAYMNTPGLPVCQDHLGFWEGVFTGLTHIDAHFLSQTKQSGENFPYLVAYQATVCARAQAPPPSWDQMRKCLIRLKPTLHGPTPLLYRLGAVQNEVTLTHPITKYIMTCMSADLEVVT
UniProt P27958, 1658-1711: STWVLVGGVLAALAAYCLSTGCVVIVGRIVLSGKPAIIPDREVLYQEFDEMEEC

One may read the Ki as the equilibrium dissociation constant of an inhibitor or competing ligand from its target.

Where only a bound is given, the exact number is not on record here.

The target of the first assay is Recombinant heterodimeric HCV NS3/NS4A protease (strain 1a) (Hepatitis C virus genotype 1a, UniProt P27958). The assay is described as follows: Spectrophotometric assay for HCV protease inhibitory activity. Type of assay: biochemical. The conditions noted are these: Table 1, range.
Regarding `C=CCNC(=O)C(=O)C(CCC)NC(=O)[C@@H]1[C@@H]2[C@H](CN1C(=O)[C@@H](NC(=O)N[C@H](CN(C)S(=O)(=O)N1CCCC1)C(C)(C)C)C1CCCCC1)C2(C)C` (stereo partly drawn) [Compound 10044], the Ki was at most 75 nM.
On to `C=CCNC(=O)C(=O)C(CCC)NC(=O)[C@@H]1[C@@H]2[C@H](CN1C(=O)[C@@H](NC(=O)N[C@H](CN(C)S(=O)(=O)N(C)C)C(C)(C)C)C(C)(C)C)C2(C)C` (stereo partly drawn) [Compound 10100], for which the Ki is at most 75 nM.
Regarding `C#CCCC(NC(=O)[C@@H]1[C@@H]2[C@H](CN1C(=O)[C@@H](NC(=O)N[C@H](CN(C)S(=O)(=O)N(C)C1CC1)C(C)(C)C)C(C)(C)C)C2(C)C)C(=O)C(=O)NCC=C` (stereo partly drawn) [Compound 10094], the Ki is at most 75 nM.
Turning to `C=CCNC(=O)C(=O)[C@@H](CCC)NC(=O)[C@@H]1[C@@H]2[C@H](CN1C(=O)[C@@H](NC(=O)N[C@H](CN(C)S(=O)(=O)N(C)C)C(C)C)C1CCCCC1)C2(C)C` [Compound 10011], the Ki was at most 75 nM.
In the case of `CN(C)S(=O)(=O)N(C)C[C@@H](NC(=O)N[C@H](C(=O)N1C[C@H]2[C@@H]([C@H]1C(=O)NC(CC1CCC1)C(=O)C(N)=O)C2(C)C)C(C)(C)C)C1CCCCC1` (stereo partly drawn) [Compound 10030], the Ki was at most 75 nM.
Take `C=CCNC(=O)C(=O)C(CCC)NC(=O)[C@@H]1[C@@H]2[C@H](CN1C(=O)[C@@H](NC(=O)N[C@H](CN(C)S(=O)(=O)N(C)C(=O)OC(C)(C)C)C(C)(C)C)C(C)(C)C)C2(C)C` (stereo partly drawn) [Compound 10091]: the Ki was at most 75 nM.
With `CC(C)(C)[C@H](NC(=O)N[C@H](CNS(=O)(=O)N1CCCCC1)C(C)(C)C)C(=O)N1C[C@H]2[C@@H]([C@H]1C(=O)NC(CC1CC1)C(=O)C(N)=O)C2(C)C` (stereo partly drawn) [Compound 10004], the Ki was at most 75 nM.
On to `C=CCNC(=O)C(=O)C(CCCC)NC(=O)[C@@H]1[C@@H]2[C@H](CN1C(=O)[C@@H](NC(=O)N[C@H](CN(C)S(=O)(=O)N(C)C)C(C)(C)C)C1(C)CCCCC1)C2(C)C` (stereo partly drawn) [Compound 10059], for which the Ki was at most 75 nM.
Take `C=CCNC(=O)C(=O)C(CCC)NC(=O)[C@@H]1[C@@H]2[C@H](CN1C(=O)[C@@H](NC(=O)N[C@H](CNS(=O)(=O)NC(=O)OCc1ccccc1)C(C)(C)C)C(C)(C)C)C2(C)C` (stereo partly drawn) [Compound 10019]: the Ki is at most 75 nM.
Still for that read-out and setting: the value for `CC(C)[C@@H](CN(C)S(=O)(=O)N(C)C)NC(=O)N[C@H](C(=O)N1C[C@H]2[C@@H]([C@H]1C(=O)NC(CC1CC1)C(=O)C(N)=O)C2(C)C)C(C)(C)C` (stereo partly drawn) [Compound 10028] was at most 75 nM.

The same assay, now with this note: Table 2, range.
`C=CCNC(=O)C(=O)C(CC1CC1)NC(=O)[C@@H]1[C@@H]2[C@H](CN1C(=O)[C@@H](NC(=O)N[C@H](CN(CCC(C)(C)C)S(C)(=O)=O)C(C)(C)C)C(C)(C)C)C2(C)C` (stereo partly drawn) [Compound 11173]: the Ki was at most 75 nM.
Regarding `C=CCNC(=O)C(=O)C(CCCC)NC(=O)[C@@H]1[C@@H]2[C@H](CN1C(=O)[C@@H](NC(=O)N[C@H](CN(C(C)C)S(C)(=O)=O)C(C)(C)C)C(C)(C)C)C2(C)C` (stereo partly drawn) [Compound 11182], the Ki was at most 75 nM.
In the case of `CCCCC(NC(=O)[C@@H]1[C@@H]2[C@H](CN1C(=O)[C@@H](NC(=O)N[C@H](CN(C)S(=O)(=O)c1ccccn1)C(C)(C)C)C1(C)CCCCC1)C2(C)C)C(=O)C(=O)NCC` (stereo partly drawn) [Compound 11370], the Ki is at most 75 nM.
As for `CCCNC(=O)C(=O)C(CC1CCC1)NC(=O)[C@@H]1[C@@H]2[C@H](CN1C(=O)[C@@H](NC(=O)N[C@H](CN(C)S(=O)(=O)c1ccccn1)C(C)(C)C)C1(C)CCCCC1)C2(C)C` (stereo partly drawn) [Compound 11369], the inhibition constant (Ki) was in the range of 75 to 250 nM.
The same measure, in the same setting: the value for `CN(CC1(NC(=O)N[C@H](C(=O)N2C[C@H]3[C@@H]([C@H]2C(=O)NC(CC2CC2)C(=O)C(N)=O)C3(C)C)C(C)(C)C)CCCCC1)S(=O)(=O)c1ccccc1` (stereo partly drawn) [Compound 11006] was at most 75 nM; that for `C=CCNC(=O)C(=O)C(CC1CC1)NC(=O)[C@@H]1[C@@H]2[C@H](CN1C(=O)[C@@H](NC(=O)N[C@H](CN(CC)S(C)(=O)=O)C(C)(C)C)C(C)(C)C)C2(C)C` (stereo partly drawn) [Compound 11171] was at most 75 nM.
As for `C#CCCC(NC(=O)[C@@H]1[C@@H]2[C@H](CN1C(=O)[C@@H](NC(=O)NC[C@@H](N(C)S(=O)(=O)c1ccccc1)C(C)(C)C)C(C)(C)C)C2(C)C)C(=O)C(=O)NCC=C` (stereo partly drawn) [Compound 11313], the Ki was over 250 nM.
Consider `C=CCNC(=O)C(=O)C(CCC)NC(=O)[C@@H]1[C@@H]2[C@H](CN1C(=O)[C@@H](NC(=O)N[C@H](CN(C)S(=O)(=O)C(C)C)C(C)(C)C)C(C)(C)C)C2(C)C` (stereo partly drawn) [Compound 11109], for which the Ki is at most 75 nM.
With `CC[C@H](C)[C@@H](CN(C)S(=O)(=O)c1ccccc1)NC(=O)N[C@H](C(=O)N1C[C@H]2[C@@H]([C@H]1C(=O)NC(CC1CC1)C(=O)C(N)=O)C2(C)C)C(C)(C)C` (stereo partly drawn) [Compound 11064], the Ki was at most 75 nM.
Turning to `C=CCNC(=O)C(=O)C(CCC(F)(F)F)NC(=O)[C@@H]1[C@@H]2[C@H](CN1C(=O)[C@@H](NC(=O)N[C@H](CN(C)S(=O)(=O)c1cccs1)C(C)(C)C)C1(C)CCCCC1)C2(C)C` (stereo partly drawn) [Compound 11143], the Ki was at most 75 nM.
Regarding `C=CCNC(=O)C(=O)C(CCC)NC(=O)[C@@H]1[C@@H]2[C@H](CN1C(=O)[C@@H](NC(=O)N[C@H](C(=O)N(C)S(=O)(=O)c1ccccc1)C(C)C)C(C)(C)C)C2(C)C` (stereo partly drawn) [Compound 11381], the Ki is at most 75 nM.
The same measure, in the same setting: the value for `C=CCNC(=O)C(=O)C(CCC(F)(F)F)NC(=O)[C@@H]1[C@@H]2[C@H](CN1C(=O)[C@@H](NC(=O)N[C@H](CN(C)S(=O)(=O)CC)C(C)(C)C)C1(C)CCCCC1)C2(C)C` (stereo partly drawn) [Compound 11328] was at most 75 nM.
Regarding `C#CCCC(NC(=O)[C@@H]1[C@@H]2[C@H](CN1C(=O)[C@@H](NC(=O)N[C@H](CN(C)S(=O)(=O)CC)C(C)(C)C)C1(C)CCCCC1)C2(C)C)C(=O)C(=O)NCC=C` (stereo partly drawn) [Compound 11329], the Ki is at most 75 nM.
On the same count and under the same terms, the value for `C=CCNC(=O)C(=O)C(CC1CC1)NC(=O)[C@@H]1[C@@H]2[C@H](CN1C(=O)[C@@H](NC(=O)N[C@H](CN(C)S(=O)(=O)C1CC1)C(C)C)C(C)(C)C)C2(C)C` (stereo partly drawn) [Compound 11037] was 75 to 250 nM.
As to `CCCCC(NC(=O)[C@@H]1[C@@H]2[C@H](CN1C(=O)[C@@H](NC(=O)N[C@H](CN(C)S(C)(=O)=O)C(C)(C)C)C1(C)CCCCC1)C2(C)C)C(=O)C(=O)NC` (stereo partly drawn) [Compound 11200], the Ki is at most 75 nM.
As for `C=CCNC(=O)C(=O)C(CCC)NC(=O)[C@@H]1[C@@H]2[C@H](CN1C(=O)[C@@H](NC(=O)N[C@H](CN(C)S(C)(=O)=O)C(C)(C)C)C1CCCCC1)C2(C)C` (stereo partly drawn) [Compound 11081], the Ki is at most 75 nM.
In the case of `C=CCNC(=O)C(=O)C(CC1CC1)NC(=O)[C@@H]1[C@@H]2[C@H](CN1C(=O)[C@@H](NC(=O)N[C@H](CN(C)S(=O)(=O)c1c(C)cc(C)cc1C)C(C)(C)C)C(C)(C)C)C2(C)C` (stereo partly drawn) [Compound 11332], the Ki was 75 to 250 nM.
`C#CCCC(NC(=O)[C@@H]1[C@@H]2[C@H](CN1C(=O)[C@@H](NC(=O)N[C@H](CN(C)S(=O)(=O)c1cccs1)C(C)(C)C)C(C)(C)C)C2(C)C)C(=O)C(=O)NCC=C` (stereo partly drawn) [Compound 11127]: the Ki is at most 75 nM.
On the same count and under the same terms, the value for `C=CCNC(=O)C(=O)C(CCCC)NC(=O)[C@@H]1[C@@H]2[C@H](CN1C(=O)[C@@H](NC(=O)N[C@H](CN(C)S(=O)(=O)c1ccc(OC)cc1)C(C)(C)C)C(C)(C)C)C2(C)C` (stereo partly drawn) [Compound 11341] was at most 75 nM; that for `C=CCNC(=O)C(=O)C(CCC(F)(F)F)NC(=O)[C@@H]1[C@@H]2[C@H](CN1C(=O)[C@@H](NC(=O)NC1(CN(C)S(C)(=O)=O)CCCCC1)C(C)(C)C)C2(C)C` (stereo partly drawn) [Compound 11059] was at most 75 nM.
As to `C=CCNC(=O)C(=O)C(CCCC)NC(=O)[C@@H]1[C@@H]2[C@H](CN1C(=O)[C@@H](NC(=O)NC1(CN(C)S(=O)(=O)c3ccccc3)CCCCC1)C(C)(C)C)C2(C)C` (stereo partly drawn) [Compound 11015], the Ki is at most 75 nM.
The same measure, in the same setting: the value for `C=CCNC(=O)C(=O)C(CC1CCC1)NC(=O)[C@@H]1[C@@H]2[C@H](CN1C(=O)[C@@H](NC(=O)N[C@H](CN(C)S(=O)(=O)c1ccccn1)C(C)(C)C)C1CCCCC1)C2(C)C` (stereo partly drawn) [Compound 11295] was at most 75 nM; that for `C=CCNC(=O)C(=O)C(CC1CC1)NC(=O)[C@@H]1[C@@H]2[C@H](CN1C(=O)[C@@H](NC(=O)N[C@H](CN(C)S(=O)(=O)c1cccs1)C(C)(C)C)C1CCCC1)C2(C)C` (stereo partly drawn) [Compound 11224] was 75 to 250 nM.

The same assay, now with this note: Table 3, range.
On to `CC(C)(C)[C@H](NC(=O)NC1(CNS(=O)(=O)C2CC2)CCCCC1)C(=O)N1C[C@H]2[C@@H]([C@H]1C(=O)NC(CC1CC1)C(=O)C(N)=O)C2(C)C` (stereo partly drawn) [Compound 12017], for which the Ki is at most 75 nM.

Still in this assay, the particulars now being: Table 4, range.
Turning to `C=CCNC(=O)C(=O)C(CC1CC1)NC(=O)[C@@H]1[C@@H]2[C@H](CN1C(=O)[C@@H](NC(=O)N[C@H](CN(C)C(=O)C1CC1)C(C)(C)C)C(C)(C)C)C2(C)C` (stereo partly drawn) [Compound 13017], the Ki is over 250 nM.

Still in this assay, the particulars now being: Table 5, range.
On to `COC(=O)N(C)C[C@@H](NC(=O)N[C@H](C(=O)N1C[C@H]2[C@@H]([C@H]1C(=O)NC(CC1CCC1)C(=O)C(N)=O)C2(C)C)C(C)(C)C)C(C)(C)C` (stereo partly drawn) [Compound 14030], for which the Ki is at most 75 nM.
For `CC(C)COC(=O)NC[C@@H](NC(=O)N[C@H](C(=O)N1C[C@H]2[C@@H]([C@H]1C(=O)NC(CC1CCC1)C(=O)C(N)=O)C2(C)C)C(C)(C)C)C(C)C` (stereo partly drawn) [Compound 14009], the Ki is at most 75 nM.
For the compound `CCOC(=O)NC[C@@H](NC(=O)N[C@H](C(=O)N1C[C@H]2[C@@H]([C@H]1C(=O)NC(CC1CC1)C(=O)C(N)=O)C2(C)C)C(C)(C)C)C(C)C` (stereo partly drawn) [Compound 14020], the Ki is at most 75 nM.
`CC(C)[C@H](CNC(=O)OCc1ccccc1)NC(=O)N[C@H](C(=O)N1C[C@H]2[C@@H]([C@H]1C(=O)NC(CC1CC1)C(=O)C(N)=O)C2(C)C)C(C)(C)C` (stereo partly drawn) [Compound 14056]: the Ki is at most 75 nM.

Still in this assay, the particulars now being: Table 5A, range.
Regarding `C=CCNC(=O)C(=O)C(CCC)NC(=O)[C@@H]1[C@@H]2[C@H](CN1C(=O)[C@@H](NC(=O)N[C@H](CN(C)S(=O)(=O)c1cccnc1)C(C)(C)C)C(C)(C)C)C2(C)C` (stereo partly drawn) [Compound 11406], the Ki was at most 75 nM.
On to `CCCCC(NC(=O)[C@@H]1[C@@H]2[C@H](CN1C(=O)[C@@H](NC(=O)N[C@H](CN(CC)S(=O)(=O)CC)C(C)(C)C)C1Cc3ccccc3C1)C2(C)C)C(=O)C(=O)NCC` (stereo partly drawn) [Compound 11402], for which the Ki is at most 75 nM.

Still in this assay, the particulars now being: Table 6.
`CCCCC(NC(=O)[C@@H]1[C@@H]2[C@H](CN1C(=O)[C@@H](NC(=O)N[C@H](CN(CC)S(=O)(=O)CC)C(C)(C)C)C1Cc3ccccc3C1)C2(C)C)C(=O)C(=O)NCC` (stereo partly drawn) [Compound 11402]: the Ki was found to be 10 nM.
